Test results taken from article PMC8203840.

Molecular target: human glycogenin-1 fused to chitin-binding domain (CBD)-intein (human) (UniProt P46976)
Experiment: pull-down; CBD-intein-GN1 variants immobilised on chitin beads (20 ul) incubated at 4 °C for 2 h with 50 ul clarified E. coli extracts of His6-TRIM7^B30.2 variants in PBS with protease inhibitor mix; washed three times with PBS; immunoblot with anti-His6 antibody

- fold change of binding against TRIM7^B30.2 WT: 2 fold
Substance: TRIM7^B30.2 Arg354Ala (from UniProt Q9C029 338-511) (domain or fragment; other documents disagree on this pair)
